From patent US20170183404A1

Columns and labels:
[1] = biological target: Delta mMor1 (recombinant mouse mu-type opioid receptor) (mouse) (UniProt P42866); assay: [3H]-diprenorphine radioligand competition on Delta mMor1/Sf9 membranes
[2] = biological target: Delta mMor1 (recombinant mouse mu-type opioid receptor) (mouse) (UniProt P42866); assay: [3H]-diprenorphine competition on Delta mMor1/Sf9 membranes in presence of 5 µM XA8633
[3] = biological target: Delta mMor1 (recombinant mouse mu-type opioid receptor) (mouse) (UniProt P42866); assay: [3H]-diprenorphine competition on Delta mMor1/Sf9 membranes in presence of mock VHH CA4910

Dmt1-Dalda (peptide)
IC50 [1]: 0.511 µM | IC50 [2]: 0.057 µM | IC50 [3]: 0.55 µM
